The nature of this data set: solubility characteristics of additives. The note with it: require suspension prior to administration to the cup.

With `[Ca+2]` [Calcium], the solubility result is given as “Insoluble”.

These data come from patent US20090130261A1, “Vit-A-Cup” (priority 2007, published 2009).
